# Test results taken from patent EP0497399A1, “Process for evaluating skin irritancy” (THE PROCTER & GAMBLE COMPANY, priority 1991, dated 1992).
# Experiments:
# [1] = tested on: HuK/F cultures; experiment: MTT assay of cell viability in human skin cell co-cultures on nylon mesh; format: cell-based; settings: concentration w/v giving 50% decrease in MTT dye uptake vs untreated control, 48 hours
# [2] = tested on: HuK/F cultures; experiment: N-acetylglucosaminidase release into culture medium (cytotoxicity); format: cell-based, human; settings: 48 hours
# Description: (§1) For each HuK/F experiment, on a 24 well plate, 1 test material is evaluated at 4 concentrations (in quadruplicate wells per each concentration). In addition, 4 wells serve as medium control, and 4 wells as sodium dodecyl sulfate positive control. For each material evaluated, a dose-range finding study is performed at 0.001, 0.01, 0.1 and 1.0% (w/v) concentrations to determine the concentration eliciting minimum and maximum cytotoxicity in the MTT assay of cell viability. Based on the dose-range finding study, a range of test material concentrations is selected to determine the concentration eliciting minimum and maximum cytotoxicity in the MTT assay of cell viability. Based on the dose-range finding study, concentrations are selected at the maximal cytoxicity level and minimum level and at two 1/3 log intervals between these concentrations (e.g., if the maximum cytoxicity was at 1% with no cytotoxicity or cell death at 0.1% the concentrations evaluated subsequently would be 0.1, 0.3, 0.6 and 1%).
# (§2) On treatment day, growth medium is aseptically aspirated, and the cell meshes are treated with two ml of test medium per well. Medium alone served as a no treatment control with 0.01% sodium dodecyl sulfate acting as a positive control (n=4 wells/group). All test plates are incubated at 37 °C and 5% carbon dioxide for 4 to 72 hours. Observations are made (e.g. changes in medium color) during the treatment period.
# (§3) • 1. Place one untreated, precut mesh (no cells) into one or more wells to determine the background non-specific binding (NSB) of MTT to mesh and to act as absolute blank. In remaining wells place 1 mesh per well of the fibroblast/keratinocyte co-cultures. Add 2 ml of the assay medium which is supplied with the test kit. (Marrow-Tech supplies a medium). • 2. Remove medium from each well and add 2 ml/well of test agent diluted in assay medium. Refeed untreated control mesh and mesh without cells with assay medium. • 3. Incubate 48 hours at 37 °C in 5%. carbon dioxide atmosphere. • 4. Prepare a solution of 0.5 mg/ml MTT (Sigma Chemical Co. Catalog #M-2128) in assay medium. Centrifuge MTT/medium for 5 minutes at 3000 RPM to pellet undissolved crystals, then prewarm MTT in a 37 °C waterbath. • 5. Remove spent medium. Use 1 ml aliquot to analyze for lactate dehydrogenase and N-acetylglucosaminidase release and glucose; 1 ml can be saved under nitrogen at -70 °C for PGE2 analysis at a later time. • 6. Add 1 ml/well MTT/medium solution. Add medium without MTT to absolute blank well. Incubate cultures at 37 °C, 5% carbon dioxide for 3 hours. • 7. Remove MTT/medium and wash each mesh 2 times with 1 ml Dulbecco's phosphate buffered saline with calcium and magnesium (PBS). About 2-5 minutes each wash. • 8. Remove second PBS wash and add 2 ml isopropanol/well at room temperature 2 hours. This will extract the formazan from mitochondria of cells into the supernatant. (Note: the amount of MTT taken up by a cell culture and subsequently released by solvent extraction is proportional to the number of viable cells within the culture). Remove meshes from test well and stir on shaking vortex mixer. • 9. Transfer 200 microliter aliquots of the blue spent solvent from each well to a 96 well microtiter plate and read absorbance at 540 nm blanking to absolute blank (well not exposed to the MTT). The wells containing the NSB meshes should be subtracted from the test well absorbances before performing calculations below.
# [3] = tested on: HuK/F cultures; experiment: Lactate dehydrogenase release into culture medium (cytotoxicity); format: cell-based, human; settings: 48 hours
# Description: as §1, §2, §3
Substance,MTT-50 Endpoint (Concentration w/v) [1],N-Acetylglucosaminidase Release ([2]; 0.001 % w/v),N-Acetylglucosaminidase Release ([2]; 0.003 % w/v),N-Acetylglucosaminidase Release ([2]; 0.006 % w/v),N-Acetylglucosaminidase Release ([2]; 0.01 % w/v),Lactate Dehydrogenase Release ([3]; 0.001 % w/v),Lactate Dehydrogenase Release ([3]; 0.003 % w/v),Lactate Dehydrogenase Release ([3]; 0.006 % w/v),Lactate Dehydrogenase Release ([3]; 0.01 % w/v)
C12.3 Alkane Benzene Sulfonate [C12.3 LAS*H],0.0070%,13.95 U/L,14.80 U/L,16.85 U/L,21.43+ U/L,29.3 U/L,38.0 U/L,389.3+ U/L,1584.0+ U/L
C11.8 Alkane Benzene Sulfonate [C11.8 LAS],0.0073%,11.8 U/L,12.58 U/L,13.75 U/L,17.18+ U/L,54.5 U/L,62.0 U/L,371.3+ U/L,1459.5+ U/L
